Source: patent publication US12649783B2, “Anti-MCT1 antibodies and uses thereof” (IMMUNEXT INC., priority 2018, dated 2026)

Test system: Tr1 cells
Assay: ex vivo Tr1 survival
Type: cell-based, human
Description: Humanized NSG mice (treated with anti-MCT1) were sacrificed on d32 or other day specified, single cells suspensions were prepared from spleens, followed by bead-based enrichment of hCD3+ cells. Isolated cells were plated with the analytes (see above table) to access Tr1 survival: […]

## IL-2: Recombinant Human IL2 (carrier-free), Biolegend 589104
  ex vivo Tr1 survival: increased ex vivo Tr1 survival in a dose-dependent manner
